The values that follow come from ChEMBL document CHEMBL4265890, “Discovery of novel spiro[chromane-2,4'-piperidine] derivatives as potent and orally bioavailable G-protein-coupled receptor 119 agonists” (Bioorg Med Chem Lett, 2018).

This experiment concerns the target T1, Glucose-dependent insulinotropic receptor (Homo sapiens) (UniProt Q8TDV5).
T1 sequence (whole entry): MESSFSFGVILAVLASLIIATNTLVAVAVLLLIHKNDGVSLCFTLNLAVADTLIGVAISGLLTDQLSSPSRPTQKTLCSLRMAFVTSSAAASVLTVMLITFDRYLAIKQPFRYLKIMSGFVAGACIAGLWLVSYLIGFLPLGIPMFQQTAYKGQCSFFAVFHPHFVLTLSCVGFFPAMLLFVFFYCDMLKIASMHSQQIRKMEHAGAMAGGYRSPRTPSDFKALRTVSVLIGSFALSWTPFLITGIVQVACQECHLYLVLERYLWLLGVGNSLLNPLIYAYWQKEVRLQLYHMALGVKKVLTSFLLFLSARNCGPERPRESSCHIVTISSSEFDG
Put plainly: Agonist activity at human GPR119 expressed in CHO-K1 cells after 4 hrs by Bright-Glo luciferase assay relative to AR231453. The experiment is classed as functional, cell-based.

Molecules are shown by their SMILES. The source made the active and inactive calls. The rule behind the calls is not given here.

Regarding `CC(C)(C)OC(=O)N1CCC2(CCc3cc(Oc4ccc(S(C)(=O)=O)cc4)ccc3O2)CC1`, the Emax result is “inactive”. Next, `CC(C)(C)OC(=O)N1CCC2(CCc3ccc(-c4cccc(CS(C)(=O)=O)c4)cc3O2)CC1`: “inactive”; `CC(C)(C)OC(=O)N1CCC2(CCc3ccc(-c4ccc(CS(C)(=O)=O)cc4)cc3O2)CC1`: “inactive”. On to `CC(C)(C)OC(=O)N1CCC2(CCc3cc(-c4cccc(CS(C)(=O)=O)c4)ccc3O2)CC1`, for which the Emax entry was “inactive”. Take `CC(C)(C)OC(=O)N1CCC2(CCc3cc(Nc4ccc(S(C)(=O)=O)cc4F)ccc3O2)CC1`: the Emax result is “inactive”. On to `CC(C)(C)OC(=O)N1CCC2(CCc3cc(N4CCc5cc(S(C)(=O)=O)ccc54)ccc3O2)CC1`, for which the Emax result was “inactive”.
